The chains behind the UniProt entries cited, without tags or fusion partners.
UniProt P35372, whole entry: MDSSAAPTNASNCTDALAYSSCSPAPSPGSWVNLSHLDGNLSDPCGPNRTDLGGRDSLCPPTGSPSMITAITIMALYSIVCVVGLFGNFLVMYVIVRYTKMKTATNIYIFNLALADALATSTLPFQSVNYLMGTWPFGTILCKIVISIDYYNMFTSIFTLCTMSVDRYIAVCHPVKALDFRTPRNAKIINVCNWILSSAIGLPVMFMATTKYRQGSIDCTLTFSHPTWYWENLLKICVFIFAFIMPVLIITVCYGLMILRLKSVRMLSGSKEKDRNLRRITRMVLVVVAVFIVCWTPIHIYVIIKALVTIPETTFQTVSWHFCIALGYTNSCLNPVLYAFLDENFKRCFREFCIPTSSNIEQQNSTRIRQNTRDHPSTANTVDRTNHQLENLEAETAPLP

According to publication PMC4552603 (Pharmacology, biochemistry, and behavior, 2015):

Molecular target: human mu receptor (Homo sapiens, UniProt P35372)
Type: cell-based
Conditions: 10 μM, live confocal imaging over 10 min

## DAMGO
  βarr2 recruitment (qualitative): robust recruitment of βarr2
